Measured values as given in US11760889B2, “Unsaturated fatty alcohol derivatives from natural oil metathesis” (priority 2012, dated 2023).

Assays:
[1] = Water-soluble herbicide formulation testing (standard dilution test, emulsion stability); assay type: physicochemical; parameters: key: D = dispersable; S = soluble; I = insoluble
Method: Surfactant candidates for water soluble herbicide applications are examined as a replacement for the anionic, nonionic, or anionic/nonionic blend portion and compared to a known industry adjuvant standard for use in paraquat, a water soluble herbicide concentrate formulation. A standard dilution test is conducted whereby the concentrates are diluted in water to determine if solubility is complete.
The cylinder is stoppered and inverted ten times. Solubility is recorded as complete or incomplete. Cylinders are allowed to stand and the amount (in mL) and type of separation are recorded after 30 min., 1 h, 2 h, and 24 h. Results of the solubility testing appear in Table 3 below.
An eight to ten mole alkyl phenol ethoxylate surfactant (0.7 g) is added and vigorously mixed for 30 s. Test sample (0.7 g) is added and mixing resumes for 30 s.
Test sample (0.7 g) is added and vigorously mixed for 30 s. Sodium linear alkylbenzene sulfonate (“NaLAS,” 0.7 g) is added and mixing resumes for 30 s.

[2] = Solubility evaluation: enhanced oil recovery (EOR); assay type: physicochemical; conditions: for Comments (appearance): 1 wt. % in 1% sodium chloride brine
Method: Samples are prepared in a 10% stock solution and evaluated at 1 wt. % with a brine concentration of 1% sodium chloride. Replicate experiments are performed at each temperature with each sample.

Substance	sol (solubility on dilution) [1]	Overall performance (EOR solubility) [2]	Soluble? [2]	Comments (appearance) ([2]; 20.7 ° C.)	Comments (appearance) ([2]; 51.5 ° C.)	Comments (appearance) ([2]; 56.1 ° C.)
15 Mole Ethoxylated C10 Alcohol, Sodium Sulfate [A10-18]	S	–	–	–	–	–
3 Mole Ethoxylated C10 Alcohol, Ammonium Sulfate [A10-8]	–	Overall performance of A10-8: Equal to control	yes	clear, colorless	clear, colorless	clear, colorless
